Source: patent US20240140944A1, “NOVEL NAPHTHYRIDINONE DERIVATIVE HAVING INHIBITORY ACTIVITY AGAINST ECTONUCLEOTIDE PYROPHOSPHATASE-PHOSPHODIESTERASE AND USE THEREOF” (TXINNO BIOSCIENCE INC., priority 2020, published 2024)

Test system: interferon regulatory factor 3 (IRF3) in HCT116-Dual cells
Assay: HCT116-Dual Cell Luciferase Assay (ISG54 promoter, IRF3 activity)
Conditions: ENPP1 inhibitor usually 10 μM plus cGAMP 10 μM, 48 hours, Lucia luciferase; tested form: hydrochloride
From the text: HCT116-Dual™ cells express genes encoding luciferase secreted under the control of the interferon-stimulated gene 54 (ISG54) promoter along with five interferon-stimulated response elements. The HCT116-Dual™ cell line was used to measure and monitor the activity of interferon regulatory factor 3 (IRF3), which induces production of type I interferon and relates to downstream signaling, and Lucia secreted in the culture medium was used to generate luminescence in a luciferase reaction.
HCT116-Dual™ cells were cultured at 2×10^4 cells/well (93.4 μL) in a 96-well plate for one day in a DMEM medium containing 10% FBS and 25 mM HEPES (pH 7.2-7.5). The cells were treated with 3.3 μL of ENPP1 inhibitor (usually 10 μM) and then 3.3 μL of cGAMP (10 μM) to set the final volume to 100 μL (The final fraction of DMSO was 0.1%). The cells treated with ENPP1 inhibitor and cGAMP were cultured at 37° C. for 48 hours and 50 μL of Quanti-Luc reaction solution was added to 20 μL of cell culture medium to measure luciferase activity. The increase in interferon regulatory factor 3 (IRF3) by the compound compared to cGAMP was determined as fold.

CCNCc1ccc(-c2ccnc3[nH]c(=O)ccc23)c(F)c1
Cellular activity: increase in IRF3 by the compound compared to cGAMP, as fold: A (>2)
